Values of other authors, collected in PubChem BioAssay AID977608.
pIC50: −log10 of the molar value.

Legend:
Experiment in all cases: literature IC50 values for PDB complexes, PDB-derived complexes (AID 977608)
[1] = molecular target: glutamate receptor subunit 2; conditions: PDB protein-ligand complexes
[2] = molecular target: HYPOXIA-INDUCIBLE FACTOR 1-ALPHA INHIBITOR; conditions: PDB protein-ligand complexes, protein: HYPOXIA-INDUCIBLE FACTOR 1-ALPHA INHIBITOR
[3] = molecular target: LYSINE-SPECIFIC DEMETHYLASE 4A; conditions: PDB protein-ligand complexes, protein: LYSINE-SPECIFIC DEMETHYLASE 4A
Beta-secretase 1 = conditions: PDB protein-ligand complexes
[4] = molecular target: Mitogen-activated protein kinase 14; conditions: PDB protein-ligand complexes
porphobilinogen synthase = conditions: PDB protein-ligand complexes, protein: porphobilinogen synthase
[5] = molecular target: Hepatocyte growth factor receptor; conditions: PDB protein-ligand complexes, protein: Hepatocyte growth factor receptor
[6] = molecular target: cell division protein kinase 2; conditions: PDB protein-ligand complexes
[7] = molecular target: poly (adp-ribose) polymerase; conditions: PDB protein-ligand complexes, protein: poly (adp-ribose) polymerase
hiv-1 integrase = conditions: PDB protein-ligand complexes, protein: hiv-1 integrase
[8] = molecular target: Pulmonary surfactant-associated protein D; conditions: PDB protein-ligand complexes, protein: Pulmonary surfactant-associated protein D
[9] = molecular target: tryptophan synthase (alpha chain); conditions: PDB protein-ligand complexes, protein: tryptophan synthase (alpha chain)
odorant-binding protein = conditions: PDB protein-ligand complexes, protein: odorant-binding protein
[10] = molecular target: camp-dependent protein kinase, alpha-catalytic; conditions: PDB protein-ligand complexes, protein: camp-dependent protein kinase, alpha-catalytic
[11] = molecular target: Fatty-acid amide hydrolase 1; conditions: PDB protein-ligand complexes
[12] = molecular target: Leukotriene A-4 hydrolase; conditions: PDB protein-ligand complexes, protein: Leukotriene A-4 hydrolase
rhGCPII = conditions: PDB protein-ligand complexes, protein: rhGCPII
glutamate receptor 2 = conditions: PDB protein-ligand complexes
[13] = molecular target: Prototype Foamy Virus (PFV) intasome S217H mutant; conditions: PDB protein-ligand complexes, protein: Prototype Foamy Virus (PFV) intasome S217H mutant, chain 3OYL_A, PDB entry 3OYL
[14] = molecular target: Prototype Foamy Virus (PFV) intasome N224H mutant; conditions: PDB protein-ligand complexes, protein: Prototype Foamy Virus (PFV) intasome N224H mutant, chain 3OYN_A, PDB entry 3OYN
L1 MBL = conditions: PDB protein-ligand complexes, protein: L1 MBL
[15] = molecular target: Serine/threonine-protein kinase PLK1; conditions: PDB protein-ligand complexes
[16] = molecular target: human phosphodiesterase 4d; conditions: PDB protein-ligand complexes, protein: human phosphodiesterase 4d
OMPD = conditions: PDB protein-ligand complexes, protein: OMPD, chain 2QCF_A, PDB entry 2QCF
[17] = molecular target: heat shock protein 90 alpha; conditions: PDB protein-ligand complexes, protein: heat shock protein 90 alpha
[18] = molecular target: 3-phosphoshikimate 1-carboxyvinyltransferase; conditions: PDB protein-ligand complexes, protein: 3-phosphoshikimate 1-carboxyvinyltransferase
[19] = molecular target: 2-C-METHYL-D-ERYTHRITOL 4-PHOSPHATE CYTIDYLYLTRANSFERASE, CHLOROPLASTIC; conditions: PDB protein-ligand complexes, protein: 2-C-METHYL-D-ERYTHRITOL 4-PHOSPHATE CYTIDYLYLTRANSFERASE, CHLOROPLASTIC

Compound: CC(C)[C@H]1CN[C@H](C(=O)O)[C@H]1CC(=O)O
- pIC50 ([1]; protein: glutamate receptor subunit 2, chain 1FTK_A, PDB entry 1FTK): 4.84

Compound: O=C(O)CC[C@@H](O)C(=O)O
- pIC50 ([2]; chain 2YC0_A, PDB entry 2YC0): 2.82
- pIC50 ([3]; chain 2YBK_A, PDB entry 2YBK): 4.62
- pIC50 ([3]; chain 2YBP_A, PDB entry 2YBP): 4.62

Compound: CC(C)c1cccc(CNC[C@@H](O)[C@H](Cc2ccccc2)NC(=O)[C@@H]2CCC[C@H](C(C)(C)N3CCCCC3=O)C2)c1
- pIC50 (Beta-secretase 1; protein: Beta-secretase 1, chain 3K5G_A, PDB entry 3K5G): 8.60

Compound: O=C1C[C@@H](c2ccc(O)cc2)Oc2cc(O)cc(O)c21
- pIC50 ([4]; protein: Mitogen-activated protein kinase 14, chain 4EH3_A, PDB entry 4EH3): 3.53

Compound: O=c1[nH]c2cc([N+](=O)[O-])c([N+](=O)[O-])cc2[nH]c1=O
- pIC50 ([1]; protein: glutamate receptor subunit 2, chain 1FTL_B, PDB entry 1FTL): 6.00

Compound: O=C(O)CCCCCCCCC(=O)O
- pIC50 (porphobilinogen synthase; chain 1I8J_A, PDB entry 1I8J): 4.41
- pIC50 (porphobilinogen synthase; chain 1L6S_A, PDB entry 1L6S): 4.41
- pIC50 (porphobilinogen synthase; chain 1L6Y_A, PDB entry 1L6Y): 3.66

Compound: Cn1cc(-c2ccc3ncc(Cc4ccc5ncccc5c4)n3n2)cn1
- pIC50 ([5]; chain 3QTI_A, PDB entry 3QTI): 7.85

Compound: CNS(=O)(=O)c1ccc(N=Cc2c(O)[nH]c3ccccc23)cc1
- pIC50 ([6]; protein: cell division protein kinase 2, chain 1KE5_A, PDB entry 1KE5): 6.25

Compound: COc1cccc(C(N)=O)c1
- pIC50 ([7]; chain 3PAX_A, PDB entry 3PAX): 5.00

Compound: c1ccccc1
- pIC50 (hiv-1 integrase; chain 1HYZ_A, PDB entry 1HYZ): 3.42

Compound: C[C@@H](NC(=O)c1cc(COC(=O)[C@](C)(N)Cc2ccccc2)cc(N(C)S(C)(=O)=O)c1)c1ccc(F)cc1
- pIC50 (Beta-secretase 1; protein: Beta-secretase 1, chain 2PH6_A, PDB entry 2PH6): 7.57

Compound: OC1C(O)C(O)C(O)C(O)C1O (stereo not given)
- pIC50 ([8]; chain 2OS9_A, PDB entry 2OS9): 2.24

Compound: Nc1ccccc1SCCCCP(=O)(O)O
- pIC50 ([9]; chain 1CX9_A, PDB entry 1CX9): 6.75

Compound: O=C(c1ccccc1)c1ccccc1
- pIC50 (odorant-binding protein; chain 1DZP_B, PDB entry 1DZP): 5.44

Compound: C[C@@H](N)C1CCC(C(=O)Nc2ccncc2)CC1 (stereo not given in full)
- pIC50 ([10]; chain 2GNF_A, PDB entry 2GNF): 5.22
- pIC50 ([10]; chain 2GNJ_A, PDB entry 2GNJ): 5.22

Compound: CCn1c(=O)n([C@H]2CCCN(c3nccc(-c4cc5ccccc5o4)n3)C2)c2ccccc21
- pIC50 ([11]; protein: Fatty-acid amide hydrolase 1, chain 3QJ9_A, PDB entry 3QJ9): 7.00

Compound: CN(CCCOc1ccc(Cc2ccccc2)cc1)CCC(=O)O
- pIC50 ([12]; chain 3FHE_A, PDB entry 3FHE): 8.60

Compound: COc1cc2c(Oc3ccc(-c4cnc(Cc5ccccc5)n(C)c4=O)cc3F)ccnc2cc1OCCCN1CCOCC1
- pIC50 ([5]; chain 2RFN_A, PDB entry 2RFN): 8.30

Compound: O=[S@](CCCCP(=O)(O)O)c1ccccc1O
- pIC50 ([9]; chain 1CW2_A, PDB entry 1CW2): 6.15

Compound: O=C(O)CC[C@H](NC(=O)N[C@@H](Cc1ccc(O)c(I)c1)C(=O)O)C(=O)O
- pIC50 (rhGCPII; chain 3D7F_A, PDB entry 3D7F): 9.30

Compound: CC(C)(C)c1o[nH]c(=O)c1C[C@H](N)C(=O)O
- pIC50 (glutamate receptor 2; protein: glutamate receptor 2, chain 1NNK_A, PDB entry 1NNK): 5.46

Compound: CCN1C[C@H](C)n2c(c(O)c3c(=O)n(Cc4ccc(F)c(Cl)c4)nc(C(=O)NC)c32)C1=O
- pIC50 [13]: 6.70
- pIC50 [14]: 7.60

Compound: OC[C@H](O)[C@H]1O[C@H](O)[C@@H](O)[C@@H](O)[C@@H]1O
- pIC50 ([8]; chain 2RIB_A, PDB entry 2RIB): 2.82

Compound: O=C(OCc1ccccc1)c1ccccc1
- pIC50 (odorant-binding protein; chain 1DZM_A, PDB entry 1DZM): 5.41

Compound: Oc1ccc2[nH]ccc2c1
- pIC50 ([12]; chain 3FUH_A, PDB entry 3FUH): 2.70

Compound: O=C(O)CC[C@H](NC(=O)N[C@@H](CSCc1ccc(F)cc1)C(=O)O)C(=O)O
- pIC50 (rhGCPII; chain 3D7D_A, PDB entry 3D7D): 7.85

Compound: O=P(O)(O)CCCCSc1ccccc1O
- pIC50 ([9]; chain 1C8V_A, PDB entry 1C8V): 6.33

Compound: O=C(O)c1c(-c2ccccc2)oc(-c2ccccc2)c1C(=O)O
- pIC50 (L1 MBL; chain 2GFK_A, PDB entry 2GFK): 4.52

Compound: O=C(Cc1ccc(F)cc1)NC(=O)Nc1ccc(Oc2ccnc3[nH]ccc23)c(F)c1
- pIC50 ([5]; chain 3CTJ_A, PDB entry 3CTJ): 7.46

Compound: Nc1ncnc2c1ncn2C1O[C@H](COP(=O)(O)OP(=O)(O)NP(=O)(O)O)[C@@H](O)[C@H]1O (stereo not given in full)
- pIC50 ([15]; protein: Serine/threonine-protein kinase PLK1, chain 2OU7_A, PDB entry 2OU7): 3.81

Compound: O=c1c2cccnc2n(-c2cccc([N+](=O)[O-])c2)c(=O)n1Cc1ccncc1
- pIC50 ([16]; chain 3G4G_A, PDB entry 3G4G): 9.04
- pIC50 ([16]; chain 3G4I_A, PDB entry 3G4I): 9.04

Compound: O=c1[nH]c(=O)n([C@@H]2O[C@H](COP(=O)(O)O)[C@@H](O)[C@H]2O)cc1F
- pIC50 (OMPD): 3.49

Compound: CC(C)NCCCn1c(Sc2cc3c(cc2I)OCO3)nc2c(N)ncnc21
- pIC50 ([17]; chain 2FWZ_A, PDB entry 2FWZ): 7.30

Compound: Cn1nnc(-c2o[nH]c(=O)c2C[C@H](N)C(=O)O)n1
- pIC50 (glutamate receptor 2; protein: glutamate receptor 2, chain 1M5B_B, PDB entry 1M5B): 8.01

Compound: O=C(O)CC[C@H](O)C(=O)O
- pIC50 ([2]; chain 2YDE_A, PDB entry 2YDE): 3.72
- pIC50 ([3]; chain 2YBS_A, PDB entry 2YBS): 4.59

Compound: O=C(OCc1ccccc1)c1cccnc1
- pIC50 ([4]; protein: Mitogen-activated protein kinase 14, chain 4EH5_A, PDB entry 4EH5): 3.09

Compound: O=C(O)C1=C[C@@H](O)[C@@H](O)[C@H](O)C1
- pIC50 ([18]; chain 2AA9_A, PDB entry 2AA9): 2.92
- pIC50 ([18]; chain 2AAY_A, PDB entry 2AAY): 2.92

Compound: O=P(O)(O)OC1[C@H](O)[C@H](O)C(O)[C@H](O)[C@H]1O (stereo not given in full)
- pIC50 ([8]; chain 2ORK_B, PDB entry 2ORK): 2.85

Compound: O=c1c(Cc2ccccc2)c(Cl)nc2nc[nH]n12
- pIC50 ([19]; chain 2YC3_A, PDB entry 2YC3): 6.85

Compound: N#Cc1cnn2c1N=C(Cl)C(Cc1ccccc1)C2=O (stereo not given)
- pIC50 ([19]; chain 2YC5_A, PDB entry 2YC5): 7.46

Compound: CN1CCN(c2ccc(C(=O)Nc3n[nH]c4c3CN(C(=O)Cc3cccs3)C4)cc2)CC1
- pIC50 ([15]; protein: Serine/threonine-protein kinase PLK1, chain 2OWB_A, PDB entry 2OWB): 6.36

Compound: CC(C)NCCCn1c(Sc2cc3c(cc2Br)OCO3)nc2c(N)ncnc21
- pIC50 ([17]; chain 2FWY_A, PDB entry 2FWY): 6.70

Compound: CC(=O)N[C@@H](Cc1cc(F)cc(F)c1)[C@H](O)CN[C@@]1(c2cccc(C(C)(C)C)c2)CCc2[nH]ncc2C1
- pIC50 (Beta-secretase 1; protein: Beta-secretase 1, chain 3IVI_A, PDB entry 3IVI): 7.92

Compound: Nc1ccc2c3c(cccc13)C(=O)NC2=O
- pIC50 ([7]; chain 2PAX_A, PDB entry 2PAX): 6.74

Compound: Cc1nc(C)c(-c2ccnc(N)n2)s1
- pIC50 ([6]; protein: cell division protein kinase 2, chain 1PXJ_A, PDB entry 1PXJ): 4.89

Compound: CNS(=O)(=O)Cc1ccc(N=Nc2c(O)[nH]c3ccc4ncsc4c23)cc1
- pIC50 ([6]; protein: cell division protein kinase 2, chain 1KE6_A, PDB entry 1KE6): 8.24

Compound: OCN1CCC2(CC1)OCc1cc(Br)ccc1O2
- pIC50 ([11]; protein: Fatty-acid amide hydrolase 1, chain 3QKV_B, PDB entry 3QKV): 7.44

Compound: Cc1ccc(C(C)C)c(O)c1
- pIC50 (odorant-binding protein; chain 1E06_A, PDB entry 1E06): 5.60

Compound: OC[C@@H](O)[C@H]1O[C@H](O)[C@@H](O)[C@@H](O)[C@@H]1O
- pIC50 ([8]; chain 2RIA_A, PDB entry 2RIA): 2.57

Compound: O=C(O)c1c(-c2ccccc2)nn(-c2ccccc2)c1C(=O)O
- pIC50 (L1 MBL; chain 2GFJ_A, PDB entry 2GFJ): 3.82

Compound: CC(=O)Nc1cc(S(=O)(=O)O)cc2cc(S(=O)(=O)O)cc(O)c12
- pIC50 (hiv-1 integrase; chain 1A5V_A, PDB entry 1A5V): 3.10
